Laboratory results as given in patent US11583516B2, “Dash inhibitors, and uses related thereto” (Trustees of Tufts College, priority 2016, dated 2023).

Tested on: CT26 tumor
Format: in vivo

N[C@H](C(=O)N1CCC[C@H]1B(O)O)C12CC3CC(CC(C3)C1)C2 (relative stereo) [ARI-5544, Gly(1-adamantyl)-boroPro]
Antitumor efficacy alone, comparison (5 micrograms alone, intraperitoneal or intratumoral, established CT26, treated 10 days after inoculation): outperforms 50 micrograms of ARI-4175 alone
Tumor regression in triple therapy (5 micrograms with anti-PD-1 antibody and anti-CTLA-4 inhibitor): complete regression of tumors in several of the treated animals
